What is called IC50 is the point on the concentration scale where inhibition reaches its midpoint. High values mean a need for much substance, low ones inhibition by little substance.

Chains of the proteins cited; added tags and fusions are not shown. Residues count along the entry.
UniProt O00519, whole entry: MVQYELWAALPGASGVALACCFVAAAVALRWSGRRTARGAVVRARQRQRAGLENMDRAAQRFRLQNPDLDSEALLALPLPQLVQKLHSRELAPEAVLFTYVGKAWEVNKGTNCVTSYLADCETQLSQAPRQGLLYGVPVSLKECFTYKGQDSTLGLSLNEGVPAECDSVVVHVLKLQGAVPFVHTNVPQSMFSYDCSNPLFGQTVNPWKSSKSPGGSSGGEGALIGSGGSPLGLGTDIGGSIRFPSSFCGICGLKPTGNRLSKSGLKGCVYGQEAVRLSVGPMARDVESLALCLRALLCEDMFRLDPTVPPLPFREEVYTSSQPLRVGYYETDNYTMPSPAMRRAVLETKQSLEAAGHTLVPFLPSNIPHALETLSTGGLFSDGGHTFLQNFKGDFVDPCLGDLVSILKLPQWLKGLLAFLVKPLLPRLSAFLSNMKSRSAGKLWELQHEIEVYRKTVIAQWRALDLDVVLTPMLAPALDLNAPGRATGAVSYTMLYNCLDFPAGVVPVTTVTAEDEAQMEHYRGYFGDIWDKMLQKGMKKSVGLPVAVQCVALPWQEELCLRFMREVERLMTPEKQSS
UniProt P00797, 67-406: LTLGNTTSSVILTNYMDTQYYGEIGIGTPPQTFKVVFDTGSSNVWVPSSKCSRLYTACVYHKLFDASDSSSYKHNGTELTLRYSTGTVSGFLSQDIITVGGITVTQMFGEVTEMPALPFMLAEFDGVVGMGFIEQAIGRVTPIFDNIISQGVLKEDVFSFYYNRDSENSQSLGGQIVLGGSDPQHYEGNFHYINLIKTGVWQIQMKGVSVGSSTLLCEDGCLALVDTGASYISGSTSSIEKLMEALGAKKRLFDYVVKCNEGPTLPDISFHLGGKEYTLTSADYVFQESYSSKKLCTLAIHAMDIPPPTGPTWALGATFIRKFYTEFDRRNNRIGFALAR

One test concerns the target T1, Faah (Homo sapiens, UniProt O00519).
T1 construct: purchased Cayman Chemical
Description: FAAH Inhibitor Screening Assay Kit (Faah). The test is classed as biochemical. The settings on record: target Faah; mean ± SD of three independent repeats, Bliss method, eight data points. As for the experimental part: (§1) To validate the practicability of WES model, we randomly selected Enpp2, Faah, PTGS2, PPARG, and REN, the five inflammation-related targets, and predicted their direct ligand-target interactions. The 24 top-scoring (hybrid-WES) and commercially available drug-target interactions (Table 3) were tested by the ligand-binding assays.
(§2) Enpp2 (Autotaxin Inhibitor Screening Assay Kit), Faah (FAAH Inhibitor Screening Assay Kit), PTGS2 (COX Inhibitor Screening Assay Kit), PPARG (PPARγ Ligand Screening Assay Kit), and REN (Renin Inhibitor Screening Assay Kit) were purchased from Cayman Chemical, Ann Arbor, MI, USA. […] The activity of targets was detected according to manufacturer’s instructions. IC50 values were determined using the Bliss method according to the eight data points per drug. The same drug-target interaction was repeated independently three times to obtain a mean IC50 value and its standard deviation.

A further test concerns the target T2, REN (Homo sapiens, UniProt P00797).
T2 construct: purchased Cayman Chemical
Description: Renin Inhibitor Screening Assay Kit (REN). The class given is biochemical. The settings on record: target REN; mean ± SD of three independent repeats, Bliss method, eight data points. The protocol: as §1, §2

With Pentagastrin (AWMDF), the values for the IC50 with Faah and with REN were 223 ± 8.3 µM and 3.45 ± 4.8 µM, respectively.

(Values after article PMC4496667, “Large-scale Direct Targeting for Drug Repositioning and Discovery” (Scientific Reports, 2015).)
